Sequences of proteins named here, by UniProt entry; tags and fusion partners are left off. A line that says so, or that is headed by a name, gives the form on record, which may keep a tag or linker. Residues count along the entry.
UniProt O60678, 2-531 with tags or gaps: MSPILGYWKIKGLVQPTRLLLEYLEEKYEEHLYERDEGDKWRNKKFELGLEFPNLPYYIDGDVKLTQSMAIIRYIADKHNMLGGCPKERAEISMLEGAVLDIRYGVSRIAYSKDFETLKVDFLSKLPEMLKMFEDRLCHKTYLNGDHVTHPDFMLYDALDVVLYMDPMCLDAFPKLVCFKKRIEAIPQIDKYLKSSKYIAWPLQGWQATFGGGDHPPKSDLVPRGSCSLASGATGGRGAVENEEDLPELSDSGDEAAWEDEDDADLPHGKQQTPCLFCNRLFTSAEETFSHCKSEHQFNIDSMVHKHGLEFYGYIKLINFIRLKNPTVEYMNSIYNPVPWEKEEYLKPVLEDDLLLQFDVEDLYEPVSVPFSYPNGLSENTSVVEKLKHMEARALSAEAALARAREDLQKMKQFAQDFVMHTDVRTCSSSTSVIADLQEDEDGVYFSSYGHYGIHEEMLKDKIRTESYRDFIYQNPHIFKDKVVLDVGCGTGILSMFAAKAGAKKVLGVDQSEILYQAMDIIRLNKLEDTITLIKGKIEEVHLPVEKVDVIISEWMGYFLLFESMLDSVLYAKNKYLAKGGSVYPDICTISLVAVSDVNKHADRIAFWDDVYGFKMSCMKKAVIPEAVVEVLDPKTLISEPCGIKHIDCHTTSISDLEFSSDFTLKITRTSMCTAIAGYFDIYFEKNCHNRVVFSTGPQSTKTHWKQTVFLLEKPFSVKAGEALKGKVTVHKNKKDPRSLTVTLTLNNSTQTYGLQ

According to patent publication US9630961B2, “Arginine methyltransferase inhibitors and uses thereof” (Epizyme, Inc., priority 2013, dated 2017):

Molecular target: PRMT3 (Homo sapiens, UniProt O60678)
Test: PRMT3 Biochemical Assay (3H-SAM Flashplate, peptide substrate)
Details: read-out: Biochemical IC50 PRMT3; 30 min preincubation, room temperature
Text: S-adenosylmethionine (SAM), S-adenosylhomocysteine (SAH), bicine, Tween20, dimethylsulfoxide (DMSO), bovine skin gelatin (BSG), isopropyl-β-D-thiogalactopyranoside (IPTG), and Tris(2-carboxyethyl)phosphine hydrochloride solution (TCEP) were purchased from Sigma-Aldrich at the highest level of purity possible. ^3H-SAM was purchase from American Radiolabeled Chemicals with a specific activity of 80 Ci/mmol. 384-well streptavidin Flashplates were purchased from PerkinElmer.
Peptide containing the classic RMT substrate motif was synthesized with an N-terminal linker-affinity tag motif and a C-terminal amide cap by 21st Century Biochemicals. The peptide was purified by high-performance liquid chromatography (HPLC) to greater than 95% purity and confirmed by liquid chromatography mass spectrometry (LC-MS). The sequence was Biot-Ahx-GGRGGFGGRGGFGGRGGFG-amide (SEQ ID NO.:11).
Full-length human PRMT3 (NM_005788.3) isoform 1 transcript clone was amplified from an HEK 293 cDNA library and subcloned into pGEX-KG (GE Life Sciences). The resulting construct encodes an N-terminal GST tag and a thrombin cleavage sequence ([…] […] […] […]) (SEQ ID NO.: 12) fused directly to Cys 2 of PRMT3.
E. coli (BL21(DE3) Gold, Stratagene) made competent by the CaCl2 method were transformed with the PRMT3 construct and ampicillin selection. […]

SMILES: CNCCN(C)Cc1c[nH]nc1-c1cncnc1
- IC50: 3.01 to 10 µM

SMILES: CNCCN(C)Cc1c[nH]nc1-c1csc2ccccc12
- IC50: 1.01 to 3 µM
